Source: patent US11471478B2, “Use of cyclodextrins in diseases and disorders involving phospholipid dysregulation” (priority 2017, dated 2022)

Conditions: in vivo

## 2-hydroxypropyl-alpha-cyclodextrin [HP-α-CD]
  absorption of oral HP-α-CD: not absorbed
